Results reported in patent US20050228023A1, “Agonist and antagonist ligands of the nociceptin receptor” (published 2005).

Legend:
μ opiate receptor = μ opiate receptor (Homo sapiens, UniProt P35372); experiment: Opiate receptor binding affinity, μ; settings: read-out: Ki (nM) μ
κ opiate receptor = κ opiate receptor (Homo sapiens, UniProt P41145); experiment: Opiate receptor binding affinity, κ; settings: read-out: Ki (nM) κ

Row | SMILES | Ki (μ opiate receptor) | Ki (κ opiate receptor)
1 | O=C1Cc2ccccc2N1C1CCN(C2CCc3ccccc3C2)CC1 (stereo not shown) | 38.9 nM | 55.1 nM
2 | O=C1Cc2ccccc2N1C1CCN(C(C2CCCCC2)C2CCCCC2)CC1 | 227 nM | 343 nM
3 | O=C1Cc2ccccc2N1C1CCN(C2CCCC3CCCCC32)CC1 (stereo not shown) | 36.7 nM | 202 nM
4 | CC(c1ccc(C2CCCCC2)cc1)N1CCC(N2C(=O)Cc3ccccc32)CC1 (stereo not shown) | 210 nM | 3870 nM
5 | O=C1Cc2ccccc2N1C1CCN(Cc2ccccc2)CC1 | 91.1 nM | 84.5 nM
